Reference: patent publication US12377155B2, “Bicyclic peptide ligands specific for PSMA” (BicycleRD Limited, priority 2018, dated 2025)

By UniProt entry, the sequences of proteins in these tests, tags left out.
UniProt Q04609, whole entry: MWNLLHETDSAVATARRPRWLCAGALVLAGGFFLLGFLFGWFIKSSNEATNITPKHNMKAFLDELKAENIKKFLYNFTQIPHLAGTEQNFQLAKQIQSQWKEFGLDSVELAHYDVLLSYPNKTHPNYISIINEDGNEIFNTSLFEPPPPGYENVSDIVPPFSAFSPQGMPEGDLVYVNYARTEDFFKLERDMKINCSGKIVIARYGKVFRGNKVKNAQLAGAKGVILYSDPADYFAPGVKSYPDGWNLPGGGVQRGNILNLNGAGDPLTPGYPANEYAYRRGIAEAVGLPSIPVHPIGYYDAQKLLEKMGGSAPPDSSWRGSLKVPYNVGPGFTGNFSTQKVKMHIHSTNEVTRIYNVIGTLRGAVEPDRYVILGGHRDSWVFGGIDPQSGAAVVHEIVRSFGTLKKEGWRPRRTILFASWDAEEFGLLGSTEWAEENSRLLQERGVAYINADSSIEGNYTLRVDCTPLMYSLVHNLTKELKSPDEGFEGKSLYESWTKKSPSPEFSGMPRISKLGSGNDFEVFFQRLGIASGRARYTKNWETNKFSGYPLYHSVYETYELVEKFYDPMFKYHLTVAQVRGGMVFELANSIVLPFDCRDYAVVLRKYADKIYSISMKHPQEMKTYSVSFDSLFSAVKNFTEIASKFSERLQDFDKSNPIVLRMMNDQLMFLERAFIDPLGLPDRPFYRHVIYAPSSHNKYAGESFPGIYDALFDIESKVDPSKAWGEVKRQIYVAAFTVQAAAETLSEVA

Biological target: PSMA (Homo sapiens, UniProt Q04609)
Test: PSMA binding, fluorescence polarization assay
Conditions: read-out: FP(h) ki
Method: PSMA binding was measured using the fluorescence polarization assay methodology described in Shen et al (2013) PLOS ONE 8(7), […] and PSMA enzyme inhibition was measured using the methodology described in WO 2009/070302.
The peptide ligands of the invention were tested in the above mentioned PSMA binding and enzyme inhibition assays and the results are shown in Table 1: […]

(B-Ala)-Sar5-AC(Nle)VCH(Nle)(Nle)EDGTC [21-31-N008]
Ki: 1360 nM
